Assay results published in BindingDB's records for doi:10.1124/jpet.104.067884 (Sanofi-Synthelabo Recherche, 2004).

Sequences of proteins named here, by UniProt entry; tags and fusion partners are left off. A change or cut given only in a name is not applied to a line headed by its entry. Residues count along the entry.
UniProt Q6MFX8, whole entry: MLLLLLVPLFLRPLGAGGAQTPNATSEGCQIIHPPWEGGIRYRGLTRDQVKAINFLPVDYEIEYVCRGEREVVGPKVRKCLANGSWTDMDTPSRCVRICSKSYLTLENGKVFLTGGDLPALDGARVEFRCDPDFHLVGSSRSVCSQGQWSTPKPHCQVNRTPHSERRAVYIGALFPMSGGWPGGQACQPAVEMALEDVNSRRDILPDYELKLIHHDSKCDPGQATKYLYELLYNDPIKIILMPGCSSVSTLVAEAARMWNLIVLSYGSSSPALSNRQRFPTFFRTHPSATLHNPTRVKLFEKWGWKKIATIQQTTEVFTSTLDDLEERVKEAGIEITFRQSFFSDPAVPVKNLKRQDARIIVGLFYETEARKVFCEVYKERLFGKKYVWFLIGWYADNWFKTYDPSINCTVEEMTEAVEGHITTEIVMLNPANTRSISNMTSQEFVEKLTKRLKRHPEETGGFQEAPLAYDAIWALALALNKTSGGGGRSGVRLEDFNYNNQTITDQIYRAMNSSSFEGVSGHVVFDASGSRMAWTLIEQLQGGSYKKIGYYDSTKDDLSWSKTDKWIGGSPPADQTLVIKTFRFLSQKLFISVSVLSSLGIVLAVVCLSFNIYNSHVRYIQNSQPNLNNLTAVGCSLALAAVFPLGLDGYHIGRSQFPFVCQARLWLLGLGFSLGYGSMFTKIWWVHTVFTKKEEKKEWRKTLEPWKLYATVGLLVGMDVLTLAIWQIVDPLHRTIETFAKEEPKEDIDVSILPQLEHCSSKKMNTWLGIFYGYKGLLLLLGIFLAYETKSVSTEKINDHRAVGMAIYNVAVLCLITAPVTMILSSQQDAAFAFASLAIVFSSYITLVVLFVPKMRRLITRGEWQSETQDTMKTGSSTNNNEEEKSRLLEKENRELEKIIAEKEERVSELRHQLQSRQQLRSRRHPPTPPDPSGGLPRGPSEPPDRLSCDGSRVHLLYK
UniProt P28221: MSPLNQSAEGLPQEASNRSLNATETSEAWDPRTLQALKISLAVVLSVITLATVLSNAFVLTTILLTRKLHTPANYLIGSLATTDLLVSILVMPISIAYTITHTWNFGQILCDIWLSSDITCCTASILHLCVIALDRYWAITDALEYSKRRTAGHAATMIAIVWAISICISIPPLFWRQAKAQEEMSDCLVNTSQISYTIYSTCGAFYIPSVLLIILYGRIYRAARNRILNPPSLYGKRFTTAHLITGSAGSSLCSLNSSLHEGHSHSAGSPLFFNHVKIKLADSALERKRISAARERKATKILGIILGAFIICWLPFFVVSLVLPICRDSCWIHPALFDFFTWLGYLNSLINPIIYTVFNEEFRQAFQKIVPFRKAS
UniProt P34969, whole entry: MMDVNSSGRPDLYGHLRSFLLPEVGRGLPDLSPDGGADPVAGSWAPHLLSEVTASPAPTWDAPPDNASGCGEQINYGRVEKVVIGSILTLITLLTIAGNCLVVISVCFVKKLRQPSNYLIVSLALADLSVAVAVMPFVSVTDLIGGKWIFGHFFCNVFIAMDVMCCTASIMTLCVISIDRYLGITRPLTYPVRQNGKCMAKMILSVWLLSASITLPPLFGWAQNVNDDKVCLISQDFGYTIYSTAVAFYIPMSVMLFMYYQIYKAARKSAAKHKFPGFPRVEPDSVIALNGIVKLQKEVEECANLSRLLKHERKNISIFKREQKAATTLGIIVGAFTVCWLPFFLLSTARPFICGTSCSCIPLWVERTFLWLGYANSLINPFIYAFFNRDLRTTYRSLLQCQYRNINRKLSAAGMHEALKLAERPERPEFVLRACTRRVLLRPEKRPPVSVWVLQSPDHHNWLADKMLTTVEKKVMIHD
UniProt P48048: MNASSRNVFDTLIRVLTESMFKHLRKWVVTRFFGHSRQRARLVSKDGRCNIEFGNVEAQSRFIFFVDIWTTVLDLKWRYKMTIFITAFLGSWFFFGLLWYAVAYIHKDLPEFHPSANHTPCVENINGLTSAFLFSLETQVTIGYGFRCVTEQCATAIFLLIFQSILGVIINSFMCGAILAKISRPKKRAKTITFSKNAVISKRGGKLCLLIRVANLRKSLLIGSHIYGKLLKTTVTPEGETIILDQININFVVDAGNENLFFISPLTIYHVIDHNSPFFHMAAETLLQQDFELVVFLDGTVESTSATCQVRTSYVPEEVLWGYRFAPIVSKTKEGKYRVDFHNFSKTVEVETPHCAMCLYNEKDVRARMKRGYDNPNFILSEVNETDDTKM
UniProt P07550, whole entry: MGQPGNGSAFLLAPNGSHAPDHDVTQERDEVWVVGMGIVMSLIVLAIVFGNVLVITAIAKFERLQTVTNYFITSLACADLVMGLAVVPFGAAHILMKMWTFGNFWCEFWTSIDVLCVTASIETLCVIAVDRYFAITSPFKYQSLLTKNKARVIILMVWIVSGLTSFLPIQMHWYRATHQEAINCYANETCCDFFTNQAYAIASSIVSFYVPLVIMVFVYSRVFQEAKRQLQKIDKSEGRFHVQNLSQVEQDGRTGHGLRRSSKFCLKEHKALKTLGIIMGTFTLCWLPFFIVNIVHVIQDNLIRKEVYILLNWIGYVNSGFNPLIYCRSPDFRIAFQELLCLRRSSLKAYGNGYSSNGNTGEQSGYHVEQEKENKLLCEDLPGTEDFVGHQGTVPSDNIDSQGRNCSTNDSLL
UniProt P06881, 83-119 limits assumed: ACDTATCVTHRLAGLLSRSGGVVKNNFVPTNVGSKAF
UniProt O95153: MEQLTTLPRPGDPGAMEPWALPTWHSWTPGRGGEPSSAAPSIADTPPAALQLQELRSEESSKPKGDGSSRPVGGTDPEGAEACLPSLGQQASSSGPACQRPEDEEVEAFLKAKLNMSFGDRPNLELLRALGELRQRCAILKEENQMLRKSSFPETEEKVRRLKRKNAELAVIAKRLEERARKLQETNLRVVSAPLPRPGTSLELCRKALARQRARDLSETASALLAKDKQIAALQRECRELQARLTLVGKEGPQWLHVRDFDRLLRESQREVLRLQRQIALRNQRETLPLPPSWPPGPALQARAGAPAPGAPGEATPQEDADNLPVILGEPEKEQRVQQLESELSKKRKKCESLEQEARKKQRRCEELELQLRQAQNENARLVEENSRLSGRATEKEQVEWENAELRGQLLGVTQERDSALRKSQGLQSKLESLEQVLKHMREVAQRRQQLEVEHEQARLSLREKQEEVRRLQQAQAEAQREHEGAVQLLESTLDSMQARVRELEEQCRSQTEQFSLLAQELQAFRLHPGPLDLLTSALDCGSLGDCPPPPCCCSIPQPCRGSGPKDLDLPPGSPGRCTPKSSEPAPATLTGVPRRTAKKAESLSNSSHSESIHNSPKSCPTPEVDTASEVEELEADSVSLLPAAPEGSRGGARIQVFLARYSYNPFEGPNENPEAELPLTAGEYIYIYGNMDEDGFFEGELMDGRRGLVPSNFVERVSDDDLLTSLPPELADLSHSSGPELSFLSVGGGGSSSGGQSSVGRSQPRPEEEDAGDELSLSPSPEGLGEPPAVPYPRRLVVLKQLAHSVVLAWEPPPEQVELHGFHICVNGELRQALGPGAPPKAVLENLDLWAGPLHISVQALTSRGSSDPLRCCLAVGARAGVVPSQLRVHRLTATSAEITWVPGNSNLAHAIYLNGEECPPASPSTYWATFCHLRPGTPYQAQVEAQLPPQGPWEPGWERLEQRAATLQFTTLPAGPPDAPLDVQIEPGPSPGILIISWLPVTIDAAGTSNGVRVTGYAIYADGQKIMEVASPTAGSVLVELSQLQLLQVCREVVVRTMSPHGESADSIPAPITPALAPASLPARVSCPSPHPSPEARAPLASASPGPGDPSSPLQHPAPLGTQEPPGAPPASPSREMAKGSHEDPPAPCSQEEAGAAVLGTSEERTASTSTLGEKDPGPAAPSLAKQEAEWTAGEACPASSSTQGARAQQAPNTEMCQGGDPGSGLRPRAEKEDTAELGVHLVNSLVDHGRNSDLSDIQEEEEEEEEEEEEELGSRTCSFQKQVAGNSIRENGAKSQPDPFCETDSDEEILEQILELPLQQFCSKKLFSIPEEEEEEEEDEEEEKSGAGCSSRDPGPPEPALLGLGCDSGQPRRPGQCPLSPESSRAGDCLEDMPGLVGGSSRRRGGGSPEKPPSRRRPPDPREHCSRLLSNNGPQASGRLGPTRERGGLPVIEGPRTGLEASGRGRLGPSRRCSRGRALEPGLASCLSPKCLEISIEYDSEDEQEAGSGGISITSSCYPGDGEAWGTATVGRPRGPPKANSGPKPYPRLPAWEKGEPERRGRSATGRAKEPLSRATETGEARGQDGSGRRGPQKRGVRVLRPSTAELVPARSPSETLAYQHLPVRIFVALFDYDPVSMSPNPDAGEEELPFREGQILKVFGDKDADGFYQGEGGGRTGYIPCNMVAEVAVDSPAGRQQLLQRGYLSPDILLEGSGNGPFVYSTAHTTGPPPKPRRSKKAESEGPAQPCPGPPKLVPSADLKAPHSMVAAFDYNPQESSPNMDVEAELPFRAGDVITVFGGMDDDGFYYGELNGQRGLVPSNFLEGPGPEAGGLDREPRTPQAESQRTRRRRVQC
UniProt P28336: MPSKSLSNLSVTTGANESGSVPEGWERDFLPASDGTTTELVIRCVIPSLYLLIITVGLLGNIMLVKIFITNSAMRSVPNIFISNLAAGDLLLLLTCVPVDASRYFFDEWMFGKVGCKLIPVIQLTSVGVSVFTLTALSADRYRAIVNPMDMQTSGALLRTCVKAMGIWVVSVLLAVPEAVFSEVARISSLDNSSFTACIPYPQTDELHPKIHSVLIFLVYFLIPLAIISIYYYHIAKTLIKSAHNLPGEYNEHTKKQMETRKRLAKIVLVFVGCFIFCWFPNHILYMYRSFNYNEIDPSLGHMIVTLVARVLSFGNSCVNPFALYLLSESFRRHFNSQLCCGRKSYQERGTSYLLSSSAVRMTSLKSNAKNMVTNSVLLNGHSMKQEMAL
UniProt P24530: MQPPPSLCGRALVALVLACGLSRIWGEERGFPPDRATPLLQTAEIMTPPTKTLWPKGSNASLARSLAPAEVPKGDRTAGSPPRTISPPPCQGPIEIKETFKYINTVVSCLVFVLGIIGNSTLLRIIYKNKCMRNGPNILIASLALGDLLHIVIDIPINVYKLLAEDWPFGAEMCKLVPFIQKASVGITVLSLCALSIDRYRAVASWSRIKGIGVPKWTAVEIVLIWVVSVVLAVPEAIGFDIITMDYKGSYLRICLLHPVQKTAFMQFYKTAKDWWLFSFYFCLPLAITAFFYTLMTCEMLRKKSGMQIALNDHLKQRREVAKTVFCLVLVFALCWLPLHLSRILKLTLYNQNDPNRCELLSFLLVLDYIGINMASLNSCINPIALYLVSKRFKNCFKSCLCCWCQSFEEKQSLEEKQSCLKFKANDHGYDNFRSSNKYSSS
UniProt P22466, 33-62 limits assumed: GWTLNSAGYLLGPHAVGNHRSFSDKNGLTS
UniProt P51575: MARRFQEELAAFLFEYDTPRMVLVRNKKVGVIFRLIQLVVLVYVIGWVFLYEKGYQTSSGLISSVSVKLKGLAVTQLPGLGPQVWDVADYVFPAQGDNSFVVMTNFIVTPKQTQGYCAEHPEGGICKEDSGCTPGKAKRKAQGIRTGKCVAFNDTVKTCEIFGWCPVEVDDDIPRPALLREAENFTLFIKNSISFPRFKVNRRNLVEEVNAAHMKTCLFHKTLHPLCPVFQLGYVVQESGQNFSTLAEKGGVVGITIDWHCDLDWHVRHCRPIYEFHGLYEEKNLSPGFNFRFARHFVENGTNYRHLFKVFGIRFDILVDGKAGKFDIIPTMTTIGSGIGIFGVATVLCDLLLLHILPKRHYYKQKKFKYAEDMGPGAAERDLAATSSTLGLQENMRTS
UniProt Q9Y587: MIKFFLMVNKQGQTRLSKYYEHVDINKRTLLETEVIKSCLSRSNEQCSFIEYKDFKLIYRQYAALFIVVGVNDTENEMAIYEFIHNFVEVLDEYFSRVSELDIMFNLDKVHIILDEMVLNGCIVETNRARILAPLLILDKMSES
UniProt A2VDS9, whole entry: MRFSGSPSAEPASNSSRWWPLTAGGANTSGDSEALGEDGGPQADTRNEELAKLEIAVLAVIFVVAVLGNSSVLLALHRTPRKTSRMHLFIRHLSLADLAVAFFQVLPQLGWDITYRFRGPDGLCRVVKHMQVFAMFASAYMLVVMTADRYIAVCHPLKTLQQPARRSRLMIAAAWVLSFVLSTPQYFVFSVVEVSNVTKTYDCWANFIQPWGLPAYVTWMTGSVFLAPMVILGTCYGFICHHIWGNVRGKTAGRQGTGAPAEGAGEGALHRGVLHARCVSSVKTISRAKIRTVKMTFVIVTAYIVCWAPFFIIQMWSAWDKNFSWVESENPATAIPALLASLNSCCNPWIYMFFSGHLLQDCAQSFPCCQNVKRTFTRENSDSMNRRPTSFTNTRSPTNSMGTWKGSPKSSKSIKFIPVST

Legend:
Substance-P receptor = Substance-P receptor (Homo sapiens, UniProt P25103)
[1] = biological target: Kappa-type opioid receptor (Homo sapiens, UniProt P41145)
[2] = biological target: Gamma-aminobutyric acid (GABA) B receptor 1 (Rattus norvegicus, UniProt Q6MFX8)
[3] = biological target: 5-hydroxytryptamine receptor 1D (Homo sapiens, UniProt P28221)
[4] = biological target: 5-hydroxytryptamine receptor 7 (Homo sapiens, UniProt P34969)
[5] = biological target: ATP-sensitive inward rectifier potassium channel 1 (Homo sapiens, UniProt P48048)
D(4) dopamine receptor = D(4) dopamine receptor (Homo sapiens, UniProt P21917)
[6] = biological target: Beta-2 adrenergic receptor (Homo sapiens, UniProt P07550)
[7] = biological target: Alpha-1A adrenergic receptor (Homo sapiens, UniProt P35348)
[8] = biological target: Calcitonin gene-related peptide 1 (Homo sapiens, UniProt P06881)
[9] = biological target: Type-2 angiotensin II receptor (Rattus norvegicus, UniProt P35351)
[10] = biological target: Peripheral-type benzodiazepine receptor-associated protein 1 (Homo sapiens, UniProt O95153)
Neuromedin-B receptor = Neuromedin-B receptor (Homo sapiens, UniProt P28336)
[11] = biological target: Endothelin receptor type B (Homo sapiens, UniProt P24530)
Galanin peptides = Galanin peptides (Homo sapiens, UniProt P22466)
[12] = biological target: Cysteinyl leukotriene receptor 1 (Mus musculus, UniProt Q99JA4)
[13] = biological target: Platelet-activating factor receptor (Homo sapiens, UniProt P25105)
[14] = biological target: Potassium voltage-gated channel subfamily A member 1 (Homo sapiens, UniProt Q09470)
P2X purinoceptor 1 = P2X purinoceptor 1 (Homo sapiens, UniProt P51575)
[15] = biological target: AP-4 complex subunit sigma-1 (Homo sapiens, UniProt Q9Y587)
Vasopressin V1a receptor = Vasopressin V1a receptor (Bos taurus, UniProt A2VDS9)
[16] = biological target: Beta-1 adrenergic receptor (Homo sapiens, UniProt P08588)
[17] = biological target: 5-hydroxytryptamine receptor 2C (Homo sapiens, UniProt P28335)

Measured: Ki

CCc1c(C(=O)NN2CCCCC2)nn(-c2ccc(Cl)cc2Cl)c1-c1ccc(Br)cc1 [SR 147778]
1000 nM: Substance-P receptor | [1] | [2] | [3] | [4] | [5] | D(4) dopamine receptor | [6] | [7] | [8] | [9] | [10] | Neuromedin-B receptor | [11] | Galanin peptides | [12] | [13] | [14] | P2X purinoceptor 1 | [15] | Vasopressin V1a receptor | [16] | [17]
